Measurements reported in patent EP4847017A1, “FORMULATION COMPRISING N,N-DIMETHYLBIGUANIDE, PHARMACEUTICAL COMBINATION COMPRISING N,N-DIMETHYLBIGUANIDE AND DRUG, COMPOSITION, KIT, USE THEREOF, AND METHOD FOR PREPARING SAME” (dated 2026).
Each block holds one molecule with its values, some of them ahead of it.

Experiments:
4T1 breast cancer cells = test: Breast cancer transplanted tumor, R with methylene blue (Example 11.1); settings: day when RTV exceeded 150%; intratumoral on the 1st and 3rd day; solution II given 20 minutes before solution I
[1] = test system: gefitinib resistant human lung adenocarcinoma cell line PC-9/GR; test: GR-resistant lung adenocarcinoma transplanted tumor, R with GR
leg muscle tissue = test: Local stimulation scoring after injection into leg muscle (Example 10.1, Series I); settings: 24 hours after one injection into right hind leg muscle; local stimulation scoring 0-4 points, mean score
[2] = test system: human breast cancer cell line MCF-7/DOX; test: DOX-resistant breast cancer transplanted tumor, R with DOX
[3] = test system: human lung cancer resistant to tyrosine kinase inhibitors (TKIs); test: PDX of TKI-resistant lung cancer, R with osimertinib (AZD9291)
[4] = test system: paclitaxel-resistant human ovarian cancer cell strain SKOV3/TAX; test: TAX-resistant ovarian cancer transplanted tumor, R with TAX and 5-Fu
[5] = test system: human pancreatic cancer cell line ASPC-1/GEM with gemcitabine resistance; test: GEM-resistant pancreatic cancer transplanted tumor, R with GEM and DDP
[6] = test system: tyrosine kinase inhibitors (TKIs) resistant lung cancer; test: PDX of osimertinib-resistant lung cancer, R with IFO
[7] = test system: human pancreatic cancer cell line PANC-1; test: IFO-insensitive pancreatic cancer transplanted tumor, R with IFO
[8] = test system: 70% mouse hepatocellular carcinoma cells H22 and 30% mouse fibroblast cells (3T3); test: Hepatocellular carcinoma containing an unfavorable microenvironment; settings: day 15
[9] = test system: 1:1 mixture of mouse liver cancer cells (mouse liver tumor H22 cell lines) and mouse fibroblast; test: DDP-insensitive liver cancer with desensitized microenvironment, R with DDP
[10] = test system: drug-resistant gastric cancer cells MKN45/DDP; test: Drug-resistant gastric cancer transplanted tumor; settings: day 15; once a day for 3 consecutive days
[11] = test system: human colorectal cancer cell Fu-resistant strain sw620/Fu; test: 5-Fu-resistant colorectal cancer transplanted tumor, R with 5-Fu
[12] = test system: mouse hepatoma cells (H22); test: Hepatoma after discontinuation of 5-Fu (R or R' coadministered with B = 5-Fu); settings: 15th day; after 0.2% 5-Fu i.p. for 4 days; once a day for 4 consecutive days; group T intraperitoneal; group C also 1.3% R' intraperitoneally
[13] = test system: human liver cancer drug-resistant cells Bel-7409/5-Fu; test: Pathological analysis (HE staining) of drug-resistant liver cancer tumors 1 hour after intratumoral injection
[14] = test system: human liver cancer drug-resistant cells Bel-7409/5-Fu; test: Drug-resistant liver cancer subcutaneous transplantation tumor, tumor weight and inhibition; settings: 15th day; once a day for 3 consecutive days, intratumoral; groups C (0.5% R) and G ([…] R) also got 1.3% R' intraperitoneally
[15] = number of doses 1, intratumoral (group M 5-Fu intraperitoneal)

Molecule: CN(C)c1ccc2nc3ccc(=[N+](C)C)cc-3sc2c1
Progression-free time (4T1 breast cancer cells): 9 days

Molecule: COc1cc2ncnc(Nc3ccc(F)c(Cl)c3)c2cc1OCCCN1CCOCC1
Progression-free time ([1]; day when RTV > 150%): 3 days
Effective time ([1]; day when T/C% <42%, solution I intratumoral, II intraperitoneal, III intragastric, regimen per group b794): > 15 days

Tissue destruction score (M) (leg muscle tissue): 0.3 points
Molecule: sodium chloride

Molecule: COc1cccc2c1C(=O)c1c(O)c3c(c(O)c1C2=O)C[C@@](O)(C(=O)CO)C[C@@H]3O[C@H]1C[C@H](N)[C@H](O)[C@H](C)O1
Progression-free time ([2]; day when RTV more than 150%, observation to day 15): 3 days
Effective time ([2]; day when T/C % less than 42%, solution I intratumoral, solution II intraperitoneal, regimen per group b750): > 15 days

Molecule: C=CC(=O)Nc1cc(Nc2nccc(-c3cn(C)c4ccccc34)n2)c(OC)cc1N(C)CCN(C)C
Progression-free time ([3]; day when RTV >150%, observation to day 7): 0 days
Effective time ([3]; day when T/C% <42%, solution I intratumoral day 1, 2, 3 (100µL), solution II intragastric once a day): > 7 days

Tissue destruction score (M) (leg muscle tissue): 0.5 points
Molecule: CC(=O)O

Molecule: CC(=O)O[C@H]1C(=O)[C@@]2(C)[C@H]([C@H](OC(=O)c3ccccc3)[C@]3(O)C[C@H](OC(=O)[C@H](O)[C@@H](NC(=O)c4ccccc4)c4ccccc4)C(C)=C1C3(C)C)[C@]1(OC(C)=O)CO[C@@H]1C[C@@H]2O
Progression-free time ([4]; day when RTV > 150%): 3 days
Effective time ([4]; day when T/C% < 42%, solution I intratumoral, solution II intraperitoneal, regimen per group b779): > 15 days

Tissue destruction score (M) (leg muscle tissue): 0.6 points
Molecule: O=C(O)O

Molecule: Nc1ccn([C@@H]2O[C@H](CO)[C@@H](O)C2(F)F)c(=O)n1
Progression-free time ([5]; day when RTV > 150%): 3 days
Effective time ([5]; day when T/C% < 42%, solution I intratumoral, solution II intraperitoneal, regimen per group b771): > 15 days

Tissue destruction score (M) (leg muscle tissue): 3.6 points
Molecule: CCO

Molecule: O=P1(NCCCl)OCCCN1CCCl (centres unmarked)
Tumor weight (g, average + / - SEM) ([6]; day 9): 0.83 ± 0.46 g
Progression-free time ([6]; day when RTV > 150%, observation to day 9): 7 days
Effective time ([6]; day when T/C % < 42%, intratumoral once a day, 3 times, 100 µL): 6 days
Progression-free time ([7]; day when RTV > 150%, observation to day 15): 3 days
Effective time ([7]; day when T/C % < 42%, solution I intratumoral, solution II intraperitoneal, regimen per group b736): > 15 days

Molecule: sodium hydroxide
Tumor weight (g, mean ±SEM) [8, 15]: 1.31 ± 0.53 g
Tumor weight (g, mean ±SEM) ([8]; number of doses 6, once a day for 6 consecutive days, intratumoral): 0.34 ± 0.27 g

Tissue destruction score (M) (leg muscle tissue): 0.7 points
Molecule: monosodium phosphate

Molecule: N=C(N)NCCC[C@H](N)C(=O)O
Progression-free time (4T1 breast cancer cells): 9 days

Molecule: NCCCC[C@H](N)C(=O)O
Tumor weight (g, mean ±SEM) [8, 15]: 1.97 ± 0.37 g

Molecule: cisplatin
Progression-free time ([9]; day when RTV more than 150%): 3 days
Effective time ([9]; day when T/C % less than 42%, solution I intratumoral, solution II intraperitoneal, regimen per group b757): > 15 days
Tumor weight (g, mean ±SEM) [10]: 0.86 ± 0.18 g

Molecule: O=c1[nH]cc(F)c(=O)[nH]1
Progression-free time ([11]; day when RTV exceeded 150%): 3 days
Effective time ([11]; day when T/C% less than 42%, solution I intratumoral, solution II intraperitoneal, regimen per group b765): > 15 days
Tumor weight (g, mean ±SEM) [12]: 1.84 ± 0.29 g
morphology of cells in the tumor (pathological analysis of the tumor samples) ([13]; after administration for 1 hour): normal
t1 pharmacological effects (results of pathological analysis) ([13]; one hour after one intratumoral injection, 500 µL per mouse, HE staining, four-level grading for lesions): -
t2 pharmacological effect: Tumor weight (g, mean ±SEM) [14]: 0.75±0.11 g
Tumor weight (g, mean ±SEM) [8, 15]: 2.16 ± 0.31 g
